Reference: PMC3781062 (PLoS ONE, 2013)

Chains of the proteins cited; added tags and fusions are not shown.
UniProt P05177, whole entry: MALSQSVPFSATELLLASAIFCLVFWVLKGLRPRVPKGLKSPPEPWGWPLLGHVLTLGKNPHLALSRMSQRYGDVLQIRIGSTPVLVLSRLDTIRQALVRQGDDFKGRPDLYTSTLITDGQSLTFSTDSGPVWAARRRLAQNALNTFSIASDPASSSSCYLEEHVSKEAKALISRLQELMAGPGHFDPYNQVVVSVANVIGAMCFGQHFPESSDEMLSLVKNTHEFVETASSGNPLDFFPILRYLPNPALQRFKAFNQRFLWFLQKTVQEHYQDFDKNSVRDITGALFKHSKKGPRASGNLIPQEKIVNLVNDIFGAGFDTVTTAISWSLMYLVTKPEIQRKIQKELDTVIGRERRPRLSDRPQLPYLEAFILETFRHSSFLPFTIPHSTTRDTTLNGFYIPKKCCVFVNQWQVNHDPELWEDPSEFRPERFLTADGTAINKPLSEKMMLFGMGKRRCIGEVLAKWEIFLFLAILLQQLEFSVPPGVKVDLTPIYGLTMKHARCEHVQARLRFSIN

Target: CYP1A2 (Homo sapiens, UniProt P05177)
Format: in vitro ADME
Conditions: α-naphthoflavone 5 µM; recombinant CYP1A2

## O=c1cc(-c2ccccc2)oc2c1ccc1ccccc12 [α-naphthoflavone]
  8-MOP metabolism in presence of inhibitor: 34 % of control levels
